# Measured values as given in PMC2584039 (Molecular Pain, 2008).
# Like-named read-outs stand apart in the source and are kept apart here.
# Assays:
# [1] = system: CFA-induced mechanical hypersensitivity; conditions: cited from earlier work; for effect on CFA-induced mechanical hypersensitivity: intraplantar injection, wild-type (TRPA1+/+) but not TRPA1 knock-out mice
# [2] = system: CFA-induced mechanical hypersensitivity; conditions: 1 hr post dosing
SMILES,"effect on CFA-induced cold hypersensitivity ([1]; intra-paw injection, ref Petrus et al. (2007))",effect on CFA-induced mechanical hypersensitivity [1],effect on CFA-induced mechanical hypersensitivity ([1]; listed as AP-18),"percent reversal of CFA-induced mechanical hypersensitivity ([2]; 20 mg/kg p.o., vehicle 5%) [%]","effect on mechanical hypersensitivity of the injected paw vs vehicle ([2]; HC-030031 100 and 300 mg/kg, naproxen 20 mg/kg, p.o.)"
CC(=C\c1ccc(Cl)cc1)/C(C)=N/O [AP18],reverse partially,completely reversed,significantly attenuated,–,–
COc1ccc2cc([C@H](C)C(=O)O)ccc2c1 [naproxen],–,–,–,53,significantly attenuated
